Experimental data taken from US20240252454A1, “COMPOSITION COMPRISING AN INHIBITOR OF MITOCHONDRIAL TRANSCRIPTION” (LEAD DISCOVERY CENTER GMBH, priority 2021, published 2024).

How the values were obtained:
Assay in all cases: SRB assay, IMT combined with inhibitor
Format in all cases: cell-based
IMR90 = IMR90 (lung); concentration series of the labelled inhibitor + fixed concentration of IMT (3S)-1-[(2R)-2-[4-(2-chloro-4-fluoro-phenyl)-2-oxo-chromen-7-yl]oxypropanoyl]piperidine-3-carboxylic acid (Table 3: 40 nM, 120 h); negative=synergistic, positive=antagonistic
Method: (§1) Solforhodamine B assay is carried out as described in Voigt W. (2005) Sulforhodamine B Assay and Chemosensitivity. (Methods in Molecular Medicine™, vol 110. Humana Press. https://doi.org/10.1385/1-59259-869-2:039).
(§2) The determination of changes in cellular biomass was based on the Solforhodamine B assay format, carried out as described in Voigt W. (2005) Sulforhodamine B Assay and Chemosensitivity. (Methods in Molecular Medicine™, vol 110. Humana Press. https://doi.org/10.1385/1-59259-869-2:039).
(§3) All in vitro cell culture experiments were carried out under near physiological glucose concentrations (5 mM) in at least two independent replicates.
(§4) First, 30 different cell lines from 14 different tissue types were tested in the SRB assay format. The cells were examined individually for changes in growth over a period of 120 hours with dilution series of both inhibitors. Untreated cells were used as a negative control group. Subsequently, a dilution series of the respective MAPK signalling pathway SOCs was treated in combination with a fixed concentration of 40 nM (3S)-1-[(2R)-2-[4-(2-chloro-4-fluoro-phenyl)-2-oxo-chromen-7-yl]oxypropanoyl]piperidine-3-carboxylic acid.

CALU6 = CALU6 (lung); concentration series of the labelled inhibitor + fixed concentration of IMT (3S)-1-[(2R)-2-[4-(2-chloro-4-fluoro-phenyl)-2-oxo-chromen-7-yl]oxypropanoyl]piperidine-3-carboxylic acid (Table 3: 40 nM, 120 h); negative=synergistic, positive=antagonistic
Method: as §1, §2, §3, §4

SKMEL28 = SKMEL28 (skin); concentration series of the labelled inhibitor + fixed concentration of IMT (3S)-1-[(2R)-2-[4-(2-chloro-4-fluoro-phenyl)-2-oxo-chromen-7-yl]oxypropanoyl]piperidine-3-carboxylic acid (Table 3: 40 nM, 120 h); negative=synergistic, positive=antagonistic
Method: as §1, §2, §3, §4

KASUMI-1 = KASUMI-1 (hematological); concentration series of the labelled inhibitor + fixed concentration of IMT (3S)-1-[(2R)-2-[4-(2-chloro-4-fluoro-phenyl)-2-oxo-chromen-7-yl]oxypropanoyl]piperidine-3-carboxylic acid (Table 3: 40 nM, 120 h); negative=synergistic, positive=antagonistic
Method: as §1, §2, §3, §4

HEPG2 = HEPG2 (liver); concentration series of the labelled inhibitor + fixed concentration of IMT (3S)-1-[(2R)-2-[4-(2-chloro-4-fluoro-phenyl)-2-oxo-chromen-7-yl]oxypropanoyl]piperidine-3-carboxylic acid (Table 3: 40 nM, 120 h); negative=synergistic, positive=antagonistic
Method: as §1, §2, §3, §4

A673 = A673 (muscle); concentration series of the labelled inhibitor + fixed concentration of IMT (3S)-1-[(2R)-2-[4-(2-chloro-4-fluoro-phenyl)-2-oxo-chromen-7-yl]oxypropanoyl]piperidine-3-carboxylic acid (Table 3: 40 nM, 120 h); negative=synergistic, positive=antagonistic
Method: as §1, §2, §3, §4

PANC1 = PANC1 (pancreas); concentration series of the labelled inhibitor + fixed concentration of IMT (3S)-1-[(2R)-2-[4-(2-chloro-4-fluoro-phenyl)-2-oxo-chromen-7-yl]oxypropanoyl]piperidine-3-carboxylic acid (Table 3: 40 nM, 120 h); negative=synergistic, positive=antagonistic
Method: as §1, §2, §3, §4

MIAPACA2 = MIAPACA2 (pancreas); concentration series of the labelled inhibitor + fixed concentration of IMT (3S)-1-[(2R)-2-[4-(2-chloro-4-fluoro-phenyl)-2-oxo-chromen-7-yl]oxypropanoyl]piperidine-3-carboxylic acid (Table 3: 40 nM, 120 h); negative=synergistic, positive=antagonistic
Method: as §1, §2, §3, §4

HELA = HELA (cervix); concentration series of the labelled inhibitor + fixed concentration of IMT (3S)-1-[(2R)-2-[4-(2-chloro-4-fluoro-phenyl)-2-oxo-chromen-7-yl]oxypropanoyl]piperidine-3-carboxylic acid (Table 3: 40 nM, 120 h); negative=synergistic, positive=antagonistic
Method: as §1, §2, §3, §4

LOVO = LOVO (colon); concentration series of the labelled inhibitor + fixed concentration of IMT (3S)-1-[(2R)-2-[4-(2-chloro-4-fluoro-phenyl)-2-oxo-chromen-7-yl]oxypropanoyl]piperidine-3-carboxylic acid (Table 3: 40 nM, 120 h); negative=synergistic, positive=antagonistic
Method: as §1, §2, §3, §4

GRANTA-519 = GRANTA-519 (hematological); concentration series of the labelled inhibitor + fixed concentration of IMT (3S)-1-[(2R)-2-[4-(2-chloro-4-fluoro-phenyl)-2-oxo-chromen-7-yl]oxypropanoyl]piperidine-3-carboxylic acid (Table 3: 40 nM, 120 h); negative=synergistic, positive=antagonistic
Method: as §1, §2, §3, §4

MDAMB231 = MDAMB231 (breast); concentration series of the labelled inhibitor + fixed concentration of IMT (3S)-1-[(2R)-2-[4-(2-chloro-4-fluoro-phenyl)-2-oxo-chromen-7-yl]oxypropanoyl]piperidine-3-carboxylic acid; negative=synergistic, positive=antagonistic
Method: as §1, §2, §3
(§5) To establish the method described, combinations of (3S)-1-[(2R)-2-[4-(2-chloro-4-fluoro-phenyl)-2-oxo-chromen-7-yl]oxypropanoyl]piperidine-3-carboxylic acid and various PARPi were tested with regard to their effect on the cell growth of 33 tumour cell lines from different tissues, in the SRB and CTG assay format. The assay methods and protocols in cell culture and measurement followed the procedure as described in Example 1). […] This initial study was followed by validation experiments in a matrix format and in the CTG assay, as described for Example 1) (Table 6.)

ASPC1 = ASPC1 (pancreas); concentration series of the labelled inhibitor + fixed concentration of IMT (3S)-1-[(2R)-2-[4-(2-chloro-4-fluoro-phenyl)-2-oxo-chromen-7-yl]oxypropanoyl]piperidine-3-carboxylic acid; negative=synergistic, positive=antagonistic
Method: as §1, §2, §3, §5

With N#CC[C@H](C1CCCC1)n1cc(-c2ncnc3[nH]ccc23)cn1 [Ruxolitinib] the “difference between the calculated combinatorial index (BLISS) and the observed combinatorial effect” value (IMR90) was 0.0463, the “difference between the calculated combinatorial index (BLISS) and the observed combinatorial effect” value (CALU6) was −0.0319 and the “difference between the calculated combinatorial index (BLISS) and the observed combinatorial effect” value (SKMEL28) was −0.0505. The “difference between the calculated combinatorial index (BLISS) and the observed combinatorial effect” value (KASUMI-1) was 0.0840, the “difference between the calculated combinatorial index (BLISS) and the observed combinatorial effect” value (HEPG2) was 0.0064 and the “difference between the calculated combinatorial index (BLISS) and the observed combinatorial effect” value (A673) was −0.0209. For the same compound, the “difference between the calculated combinatorial index (BLISS) and the observed combinatorial effect” value (PANC1) was −0.0756, the “difference between the calculated combinatorial index (BLISS) and the observed combinatorial effect” value (MIAPACA2) was 0.0502 and the “difference between the calculated combinatorial index (BLISS) and the observed combinatorial effect” value (HELA) was 0.0579. For the same compound, the “difference between the calculated combinatorial index (BLISS) and the observed combinatorial effect” value (LOVO) was 0.0697, the “difference between the calculated combinatorial index (BLISS) and the observed combinatorial effect” value (GRANTA-519) was −0.0280 and the “difference between the calculated combinatorial index (BLISS) and the observed combinatorial effect” value (MDAMB231) was −0.0495. The “difference between the calculated combinatorial index (BLISS) and the observed combinatorial effect” value (ASPC1) was −0.0054.
